Tests used:
[1] = biological target: mu opioid receptor (CHO-hMOR cell membranes) (Homo sapiens, UniProt P35372); experiment: Mu Opioid Receptor Functional Assay: [35S]GTPγS Binding in CHO-hMOR Cell Membranes, Versions 1 and 2; conditions: for MOR GTP binding assay_v1 (% I): version 1, % inhibition of agonist-stimulated GTPγS binding; for MOR GTP assay_v1 % of Basal: version 1, basal binding = 100%
Procedure: CHO-hMOR cell membranes were purchased from Receptor Biology, Inc. (Baltimore, Md.). About 10 mg/ml of membrane protein was suspended in 10 mM TRIS-HCl pH 7.2, 2 mM EDTA, 10% sucrose, and the suspension kept on ice. One ml of membranes was added to 15 ml cold binding assay buffer containing 50 mM HEPES, pH 7.6, 5 mM MgCl2, 100 mM NaCl, 1 mM DTT and 1 mM EDTA. The membrane suspension was homogenized with a Polytron and centrifuged at 3,000 rpm for 10 min. The supernatant was then centrifuged at 18,000 rpm for 20 min. The pellet was resuspended in 10 ml assay buffer with a Polytron.
The membranes were preincubated with wheat germ agglutinin coated SPA beads (Amersham) at 25° C. for 45 min in the assay buffer. The SPA bead (5 mg/ml) coupled membranes (10 μg/ml) were then incubated with 0.5 nM [^35S]GTPγS in the assay buffer. […] A range of concentrations of receptor agonists was used to stimulate [^35S]GTPγS binding. Both basal and non-specific binding was tested in the absence of agonist; non-specific binding determination included 10 μM unlabeled GTPγS.
Compounds were tested for function as antagonists by evaluating their potential to inhibit agonist-stimulated GTPγS binding. Radioactivity was quantified on a Packard TopCount. The following parameters were calculated:
[formula] % Inhibition=(% stimulation by 1 μM SNC80−% stimulation by 1 μM SNC80 in presence of test compound)×100/(% Stimulation by 1 μM SNC80−100)
EC50 values were calculated using GraphPad Prism.

Protein sequences, listed by entry. Tags and fused reporters are not part of them.
UniProt P35372, whole entry: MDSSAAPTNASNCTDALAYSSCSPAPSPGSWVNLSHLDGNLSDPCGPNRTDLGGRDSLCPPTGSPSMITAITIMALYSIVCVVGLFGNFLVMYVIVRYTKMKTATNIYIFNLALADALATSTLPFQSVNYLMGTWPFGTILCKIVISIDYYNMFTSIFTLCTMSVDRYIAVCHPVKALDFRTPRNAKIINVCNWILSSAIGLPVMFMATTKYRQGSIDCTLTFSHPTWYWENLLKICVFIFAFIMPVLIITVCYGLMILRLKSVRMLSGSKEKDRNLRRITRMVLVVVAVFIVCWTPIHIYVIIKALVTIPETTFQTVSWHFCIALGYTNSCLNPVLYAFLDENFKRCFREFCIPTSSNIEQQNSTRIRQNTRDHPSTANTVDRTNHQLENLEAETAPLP
UniProt P33533, whole entry: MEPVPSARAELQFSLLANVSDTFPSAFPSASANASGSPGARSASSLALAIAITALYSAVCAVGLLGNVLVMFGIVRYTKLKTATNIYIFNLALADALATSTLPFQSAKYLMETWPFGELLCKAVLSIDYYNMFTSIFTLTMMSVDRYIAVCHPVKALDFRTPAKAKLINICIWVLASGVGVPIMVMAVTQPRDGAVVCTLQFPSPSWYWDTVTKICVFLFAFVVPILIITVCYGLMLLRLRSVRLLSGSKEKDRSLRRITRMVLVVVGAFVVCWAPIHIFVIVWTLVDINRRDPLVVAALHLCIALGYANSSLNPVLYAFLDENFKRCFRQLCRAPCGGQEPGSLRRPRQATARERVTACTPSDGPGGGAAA
UniProt P33535, whole entry: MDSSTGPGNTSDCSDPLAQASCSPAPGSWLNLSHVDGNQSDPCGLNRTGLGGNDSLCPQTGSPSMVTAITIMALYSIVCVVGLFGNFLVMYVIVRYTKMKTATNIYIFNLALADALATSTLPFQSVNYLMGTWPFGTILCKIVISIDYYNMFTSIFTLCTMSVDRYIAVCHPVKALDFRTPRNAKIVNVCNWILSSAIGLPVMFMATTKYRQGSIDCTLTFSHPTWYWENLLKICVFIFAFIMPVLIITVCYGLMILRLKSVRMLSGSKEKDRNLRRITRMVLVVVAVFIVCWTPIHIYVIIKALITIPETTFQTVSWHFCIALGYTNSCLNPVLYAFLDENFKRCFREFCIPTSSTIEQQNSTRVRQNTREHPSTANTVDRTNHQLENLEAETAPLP

[2] = biological target: delta opioid receptor (Rattus norvegicus, UniProt P33533); experiment: Rat Brain Delta Opioid Receptor Binding Assay ([3H]DPDPE); conditions: read-out: r Ki δ, rat forebrain membranes, margin of error 10-20%
Procedure: Male, Wistar rats (150-250 g, VAF, Charles River, Kingston, N.Y.) are killed by cervical dislocation, and their brains removed and placed immediately in ice cold Tris HCl buffer (50 mM, pH 7.4). The forebrains are separated from the remainder of the brain by a coronal transection, beginning dorsally at the colliculi and passing ventrally through the midbrain-pontine junction. After dissection, the forebrains are homogenized in Tris buffer in a Teflon® glass homogenizer. The homogenate is diluted to a concentration of 1 g of forebrain tissue per 80 mL Tris and centrifuged at 39,000×g for 10 min. The pellet is resuspended in the same volume of Tris buffer containing 5 mM MgCl2 with several brief pulses from a Polytron homogenizer. This particulate preparation is used for the delta opioid binding assays. Following incubation with the delta selective peptide ligand ˜4 nM [^3H]DPDPE at 25° C. for 2.5 h in a 96-well plate with total volume of 1 mL, the plate contents are filtered through Wallac filtermat B sheets on a Tomtec 96-well harvester. The filters are rinsed three times with 2 mL of 10 mM HEPES (pH 7.4), and dried in a microwave oven 2 min twice. To each sample area 2×50 μL of Betaplate Scint scintillation fluid (LKB) is added and analyzed on a LKB (Wallac) 1205 BetaPlate liquid scintillation counter.
The data are used to calculate either the % inhibition compared to control binding (when only a single concentration of test compound is evaluated) or a Ki value (when a range of concentrations is tested). % inhibition is calculated as: [(total dpm−test compound dpm)/(total dpm−nonspecific dpm)]*100. Kd and Ki values were calculated using GraphPad PRISM data analysis program.

[3] = system: novel environment-stressed mice; experiment: In Vivo Assay-Stress-Induced Fecal Output (Fecal Output for 1 hr); conditions: for Fecal Output (# pellets) cpd: novel environment-stressed mice; for Fecal Output (# pellets) cpd / Fecal Output cpd % control / Fecal Output cpd % NES: 1 hr; for Fecal Output cpd % control: relative to acclimated control; for Fecal Output cpd % NES: relative to novel environment stress (NES) vehicle group
Description: This assay evaluates the fecal output in novel environment-stressed mice to that of acclimated controls.
Methods: Adult, male, Crl:CD-1(ICR) mice, weighing ˜30-35 g were used in these studies, with a minimum of 10 mice per dose group. One group of mice was assigned as acclimated, or “non-stressed” controls. These control mice were transported from colony housing, where they were housed 3/cage in polycarbonate cages with access to food and water ad lib. to the procedure room. The mice were removed from their home cages and individually housed in 20 cm wide×20 cm deep×15 cm tall cages, equipped with a wire mesh bottom where they remained for a 16-18 hr period of acclimation to their novel environment. Mice were allowed access to food and water ad lib. during acclimation. The other groups of mice were assigned as non-acclimated, or “stressed” treatment groups. Each mouse in each group was weighed and vehicle, or test compound, was intragastrically administered by oral intubation in 0.5% methylcellulose. Mice were allowed access to water only ad lib. during the test period. After compound administrations, acclimated (control) as well as non-acclimated (stressed) mice were individually housed in a 20 cm wide×20 cm deep×15 cm tall cage, with a wire mesh bottom. An absorbant cardboard is placed beneath the cages. The number of fecal pellets excreted by each mouse was determined at hourly intervals following placement of the mice in the individual cages. Raw Data=# of fecal pellets/mouse/hr. […]

[4] = biological target: mu opioid receptor (Rattus norvegicus, UniProt P33535); experiment: Rat Brain Mu Opioid Receptor Binding Assay (and Version 2a, [3H]DAMGO); conditions: read-out: r Ki μ, rat forebrain membranes, margin of error 10-20%
[5] = biological target: delta opioid receptor (CHO-hδ cell membranes) (Homo sapiens, UniProt P41143); experiment: Delta Opioid Receptor Functional Assay: [35S]GTPγS Binding in CHO-hδ Cell Membranes, Version 1; conditions: read-out: DOR GTP-binding Assay_v1 EC50
Procedure: CHO-hδ cell membranes were purchased from Receptor Biology, Inc. (Baltimore, Md.). 10 mg/ml of membrane protein suspended in 10 mM TRIS-HC pH 7.2, 2 mM EDTA, 10% sucrose.
Membranes were maintained at 4-8° C. A portion (1 ml) of membranes was added into 15 mL cold binding assay buffer. The assay buffer contained 50 mM HEPES, pH 7.6, 5 mM MgCl2, 100 mM NaCl, 1 mM DTT and 1 mM EDTA. The membrane suspension was homogenized with a Polytron for 2 times and centrifuged at 3000 rpm for 10 min. The supernent was then centrifuged at 18,000 rpm for 20 min. The pellet was saved in a tube and 10 ml assay buffer was added into the tube. The pellet and buffer were mixed with a Polytron.
The pellet membranes (20 μg/ml) were preincubated with SPA (10 mg/ml) at 25° C. for 45 min in the assay buffer. The SPA (5 mg/ml) coupled with membranes (10 μg/ml) was then incubated with 0.5 nM [^35S]GTPγS in the same HEPES buffer containing 50 μM GDP in total volume of 200 μl. Increasing concentrations of receptor agonists were used to stimulate [^35S]GTPγS binding. The basal binding was tested in the absent agonists and no specific binding was tested in the present 10 μM unlabeled GTPγS. The data were analyzed on a Top counter.
Data The % of Basal=(stimulate−non specific)*100/(basal−non specific). EC50 values were calculated using a Prism program.

[6] = biological target: human mu opioid receptor (Homo sapiens, UniProt P35372); experiment: Human Mu Opioid Receptor Binding Assay (CHO membranes, 3H-Damgo); conditions: read-out: hKi μ
[7] = biological target: human delta subtype 2 opioid receptor (Homo sapiens, UniProt P41143); experiment: Human Delta Opioid Receptor Binding Assay (CHO membranes, 3H-Naltrindole); conditions: read-out: hKi δ
Procedure: This assay is designed to test the ability of a compound to interfere with the binding of tritiated Naltrindole to the human delta subtype 2 opioid receptor. Membranes from Chinese Hamster Ovary cells expressing the human delta subtype 2 opioid receptor (Perkin Elmer #RBHODM400UA) are homogenized in assay buffer (50 mM Tris, pH 7.5 with 5 mM MgCl2) using a glass tissue grinder, Teflon pestle and a Steadfast Stirrer (Fisher Scientific). The concentration of membranes is adjusted to 100 μg/mL in assay buffer and 100 μL is dispensed into each well of the assay plate, a 96 well round bottom polypropylene plate. Compounds to be tested are solubilized in DMSO (Pierce), 10 mM, then diluted in assay buffer to 6× the desired final concentration. The ligand, ^3H-Naltrindole (Perkin Elmer #NET-1065) is also diluted in assay buffer to 6 nM. In a second 96 well round bottom polypropylene plate, known as the premix plate, 60 μL of the 6× compound is combined with 60 μL of 6 nM ^3H-Naltrindole. From this premix plate 50 μL is transferred to the assay plate containing the membranes, in duplicate. The assay plate is incubated for 30 min at room temperature. A GF/C 96 well filter plate (Perkin Elmer #6005174) is pretreated with 0.3% polyethylenimine for 30 min. […] Nonspecific binding is determined in the presence of 1 μM unlabelled Naltrindole (Sigma #N115).

SMILES: Cc1cc(O)cc(C)c1C[C@H](N)C(=O)N(C(C)C)[C@H](C)c1nc(-c2ccccc2)c[nH]1
- MOR GTP binding assay_v1 (% I) [1]: 1.00%
- MOR GTP assay_v1 % of Basal [1]: 495.00%
- Ki [2]: 2.6 nM
- Fecal Output (# pellets) cpd ([3]; 30 mg/kg oral): 5.0 pellets
- Fecal Output cpd % control ([3]; 30 mg/kg oral): 160.7%
- Fecal Output cpd % NES ([3]; 30 mg/kg oral): 104.2%
- Ki [4]: 0.87 nM
- EC50 [5]: 56 nM

SMILES: Cc1cc(O)cc(C)c1C[C@H](N)C(=O)N(C(C)C)[C@@H](C)c1nc(-c2ccccc2)c[nH]1
- MOR GTP binding assay_v1 (% I) [1]: 1.00%
- MOR GTP assay_v1 % of Basal [1]: 694.00%
- Ki [2]: 1.41 nM
- Fecal Output (# pellets) cpd ([3]; 10 mg/kg oral): 3.5 pellets
- Fecal Output cpd % control ([3]; 10 mg/kg oral): 97.2%
- Fecal Output cpd % NES ([3]; 10 mg/kg oral): 50.7%
- # of pellets, Compound (m) 1.0 ([3]; dose 1.0, oral, NES mice, fecal output 1 hr): 7.6
- Fecal pellet output, Compound (% control) 1.0 ([3]; dose 1.0, oral, NES mice, vs acclimated control): 345.5 % control
- Fecal pellet output, Compound (% NES) 1.0 ([3]; dose 1.0, oral, vs vehicle NES group): 79.17 % NES
- # of pellets, Compound (m) 3.0 ([3]; dose 3.0, oral, NES mice, fecal output 1 hr): 7.2
- Fecal pellet output, Compound (% control) 3.0 ([3]; dose 3.0, oral, NES mice, vs acclimated control): 327.3 % control
- Fecal pellet output, Compound (% NES) 3.0 ([3]; dose 3.0, oral, vs vehicle NES group): 75 % NES
- # of pellets, Compound (m) 10.0 ([3]; dose 10.0, oral, NES mice, fecal output 1 hr): 4.2
- Fecal pellet output, Compound (% control) 10.0 ([3]; dose 10.0, oral, NES mice, vs acclimated control): 190.9 % control
- Fecal pellet output, Compound (% NES) 10.0 ([3]; dose 10.0, oral, vs vehicle NES group): 43.75 % NES
- Ki [4]: 0.03 nM
- Ki [6]: 0.65 nM
- Ki [7]: 81.3 nM

SMILES: Cc1cc(O)cc(C)c1C[C@H](N)C(=O)N(Cc1cccc(C(N)=O)c1)[C@@H](C)c1nc(-c2ccccc2)c[nH]1
- Fecal Output (# pellets) cpd ([3]; 30 mg/kg oral): 10.3 pellets
- Fecal Output cpd % control ([3]; 30 mg/kg oral): 332.3%
- Fecal Output cpd % NES ([3]; 30 mg/kg oral): 79.8%
- Ki [6]: 0.7 nM
- Ki [7]: 6.6 nM

SMILES: CNC(=O)c1cc(C)c(C[C@H](N)C(=O)N(C)[C@@H](C)c2nc(-c3ccccc3)c[nH]2)c(C)c1
- MOR GTP binding assay_v1 (% I) [1]: 27.00%
- MOR GTP assay_v1 % of Basal [1]: 962.00%
- Ki [2]: 604 nM
- Ki [4]: 4 nM
- EC50 [5]: 2320 nM
